A selection: hits, their analogues and other compounds. The true share with any hit is near 2.8%.
miR122 inh: inhibitors of miR-122 in Huh7 cells; hit rate 0.3% among 340,000; Huh7 miR-122 Renilla luciferase sensor, 48 h; neutral wells = 0, positive control = 100; activation (reporter increase), % at 12.5 µM;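 active means mean replicate activation score at least 90 and every replicate individually at or above 90; inconclusive means only one of the two criteria met; inactive means neither criterion met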;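 further: higher luciferase means less miR-122 activity so hits act as miR-122 inhibitors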
Wnt act: activators of Wnt/beta-catenin signaling. Wnt/beta-catenin reporter cell assay, activator, plate reader. activation, % at 9.35 µM. hit rate 1.2% among 300,000. AID 743398; in the data active means activation above about 30%, passing the limit was not always enough; inconclusive means no clear call, values can overlap the other calls;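 further: 0% = neutral control wells and 100% = positive control wells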
esBAF inh: blocks esBAF chromatin remodeling in mouse ES cells. Bmi1-luciferase knock-in reporter, 24 h; 100% = twice the neutral-well signal. reporter increase, % at 12.5 µM. hit rate 2% among 350,000. AID 602393; in the data active means activation above about 40%; inconclusive means no clear call, values can overlap the other calls;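 further: 0% = median of the plate's neutral control wells and 100% = double that signal; a rise in the Bmi1 reporter signal indicates esBAF inhibition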
MITF TRPM1 HTS: activators of MITF-driven TRPM1 promoter activity in SK-MEL-5 cells; AID 588334; activation, % at 12.5 µM; SK-MEL-5 TRPM1-promoter luciferase, 24 h; % of positive control, neutral wells = 0; hit rate 0.75% among 300,000;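 active means mean activation of at least 80% with every replicate also reaching 80%; inconclusive means mean reaches 80% but some replicate falls short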;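 further: 0% = neutral control wells and 100% = parthenolide positive control wells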
UUG fidelity: alters start codon recognition fidelity in yeast; S. cerevisiae UUG-firefly luciferase reporter, luminescence/redox ratio; activity score, % at 18.7 µM; actives 0.13% (n = 350,000);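 active means replicate mean at a twofold rise or more, about +100% in these data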;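 further: firefly luciferase made from a UUG start codon reports start codon fidelity; reporter light over untreated wells divided by growth signal over untreated wells; some hits fall short of that in this replicate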
PglD DTNB: blocks C. jejuni PglD acetyltransferase activity; hit rate 0.098% among 360,000; purified PglD enzyme, DTNB colorimetric CoA detection; inhibition, % at 12.5 µM; AID 602405; in the data active means inhibition above about 16%, passing the limit was not always enough; inconclusive means no clear call, values can overlap the other calls
Starred values were filed as active, the others as inactive; ? = inconclusive; . = no result given; [ ] = remark or other dose.

1	Cc1ccc2c(c1)N=C(c1ccc(Cl)cc1)CO2
2	Clc1ccc(C2=Nc3cc(Cl)ccc3OC2)cc1
3	C[C@H](CO)N1C[C@H](C)[C@H](CN(C)C(=O)CCCN(C)C)OCc2cn(nn2)CCCC1=O
4	Cc1noc(C)c1NC(=O)N[C@H]1C=C[C@H](CC(=O)Nc2ccccc2)O[C@@H]1CO
5	Cc1c(C(=O)Nc2ccccc2F)sc2ncn(CC(=O)N3CCOCC3)c(=O)c12
6	O=C(/C=C\Nc1ccc(Br)cc1)c1cccnc1

Screen / compound no. | 1 | 2 | 3 | 4 | 5 | 6
MITF TRPM1 HTS | 72 | 1 | . | . | 1 | 37
Wnt act | 11 | 17 | . | . | -2 | 38*
PglD DTNB | -1 | . | -1 | -2 | 4 | -23
UUG fidelity | -19 | . | 6 | -7 | -20 | -27
esBAF inh | 49* | . | 2 | -3 | 42* | .
miR122 inh | -8 | . | 3[16.7 µM] | . | -3 | -2

Reprinted from the part before: 2 entries, followed by the next part.
5	Cc1c(C(=O)Nc2ccccc2F)sc2ncn(CC(=O)N3CCOCC3)c(=O)c12
6	O=C(/C=C\Nc1ccc(Br)cc1)c1cccnc1
7	CNc1cncc(-c2ccoc2)n1
8	CNc1cncc(-c2cnn(CC(C)C)c2)n1
9	Cc1noc(C)c1NC(=O)N[C@@H]1CC[C@@H](CCNC(=O)C2CCC2)O[C@@H]1CO
10	OCC1CCCN(C(=S)Nc2ccc(Nc3ccccc3)cc2)C1 (stereo not drawn)
11	OCC1CCCN(C(=S)Nc2ccc(OC(F)F)cc2)C1 (stereo not drawn)
12	COCCNC(=O)c1cc2sc3ccccc3c2s1

Screen / compound no. | 5 | 6 | 7 | 8 | 9 | 10 | 11 | 12
MITF TRPM1 HTS | 1 | 37 | . | . | . | 49 | 14 | .
Wnt act | -2 | 38* | 0 | 8 | . | 3 | 4 | 46*
PglD DTNB | 4 | -23 | -2 | 0 | 3 | 5 | 4 | 1
UUG fidelity | -20 | -27 | -16 | -16 | -13 | -32 | -22 | -16
esBAF inh | 42* | . | 1 | 43* | -3 | 47* | . | 2
miR122 inh | -3 | -2 | -2 | -10 | . | 5 | 1 | 0

13	Clc1ccccc1Cn1nnc(-c2cccs2)n1
14	CC=Cc1ccc2n(c1=O)C[C@@H]1[C@@H](CO)[C@H](C(=O)OC)N(CCc3ccccc3)[C@H]21 (mixture of isomers)
15	OCCn1c(-c2ccc3c(c2)OCO3)csc1=Nc1ccccc1
16	CCn1c(-c2ccccc2)csc1=Nc1ccc(O)cc1
17	CCOc1ccc(N=c2scc(-c3ccccc3)n2CCO)cc1
18	CN1CCN(C(=O)C[C@H]2CC[C@@H]3[C@H](COC[C@@H](O)CN3C(=O)C3CCCC3)O2)CC1

Screen / compound no. | 13 | 14 | 15 | 16 | 17 | 18
MITF TRPM1 HTS | 60 | . | 13 | 60 | 29 | .
Wnt act | . | . | 22 | 66* | 12 | .
PglD DTNB | 3 | 0 | -3 | . | 0 | 1
UUG fidelity | 11 | . | -9 | . | -9 | -6
esBAF inh | 56* | 3 | 78* | . | 45* | -2
miR122 inh | 10 | . | 6 | . | 14 | 0[16.7 µM]

19	CN(C)c1ccnc(N(Cc2ccccc2)Cc2ccccc2)c1C#N
20	CC(C)NC(=O)Nc1ccc2c(c1)C(=O)N(C)[C@H]1CC[C@@H](CC(=O)Nc3ccccc3)O[C@@H]1CO2
21	Cc1ccc(Cn2c(NS(=O)(=O)c3ccccc3)nc3ccccc32)cc1
22	CCC(=O)Nc1nc2ccccc2n1Cc1ccc(C)cc1
23	c1ccc(OCCSc2nnnn2-c2ccccc2)cc1
24	COc1ccc(-c2nc3c4ccccc4[nH]c(=O)n3n2)cc1

Screen / compound no. | 19 | 20 | 21 | 22 | 23 | 24
MITF TRPM1 HTS | 47 | . | -19 | -16 | 90* | .
Wnt act | . | . | -5 | . | . | 59*
PglD DTNB | 7 | -2 | -1 | -4 | 1 | 3
UUG fidelity | -2 | 10 | -15 | -8 | -29 | -13
esBAF inh | 74* | -2 | -4 | 6 | 28 | 46*
miR122 inh | 4 | 2[16.7 µM] | 106* | 4 | . | 10

25	Cc1ccc(NC(=O)C2COc3ccccc3O2)c(C)c1 (stereo not drawn)
26	Cc1ccnc(NC(=O)C2COc3ccccc3O2)c1 (stereo not drawn)
27	Cc1cc(C)c(C)c(OCC(=O)O/N=C(\N)c2ccncc2)c1
28	COc1ccc(/C(N)=N/OC(=O)COc2ccccc2Cl)cc1
29	Cc1cccc(/C(N)=N/OC(=O)COc2ccccc2Cl)c1
30	COc1ccc(/C(N)=N/OC(=O)Cc2cccs2)cc1

Screen / compound no. | 25 | 26 | 27 | 28 | 29 | 30
MITF TRPM1 HTS | 31 | 88* | 18 | 60 | 32 | ?
Wnt act | 8 | 58* | 5 | 0 | . | -2
PglD DTNB | 3 | . | 1 | -2 | . | -4
UUG fidelity | -13 | . | 24 | -1 | . | -1
esBAF inh | 45* | . | -2 | 49* | . | 60*
miR122 inh | 12 | . | -9 | -3 | . | -4

31	N/C(=N\OC(=O)COc1ccc(Br)cc1Cl)c1ccncc1
32	Cc1ccc(OCC(=O)O/N=C(\N)c2ccncc2)c(C)c1
33	C[C@@H]1CN([C@@H](C)CO)C(=O)c2cc(NS(=O)(=O)c3cn(C)cn3)ccc2O[C@@H]1CN(C)S(=O)(=O)c1ccc(Cl)cc1
34	COc1ccccc1S(=O)(=O)N[C@@H]1C=C[C@H](CC(=O)N2CCCCC2)O[C@@H]1CO
35	Cc1ccccc1OCC(=O)O/N=C(\N)c1ccncc1
36	N/C(=N\OC(=O)COc1cc(Cl)c(Cl)cc1Cl)c1ccncc1

Screen / compound no. | 31 | 32 | 33 | 34 | 35 | 36
MITF TRPM1 HTS | 130* | 161* | . | . | 48 | .
Wnt act | 67* | 20 | . | . | 18 | 4
PglD DTNB | . | 2 | 5 | 7 | 0 | .
UUG fidelity | . | -15 | -10 | . | -7 | .
esBAF inh | . | 69* | -1 | 3 | 58* | .
miR122 inh | . | -6 | 3[16.7 µM] | . | -5 | .

37	C/C=C/c1ccc([C@@H]2[C@H](CO)N(Cc3ccccn3)[C@H]2CNC(C)=O)cc1
38	O=C(O)CNC(=O)C1(N2C(=O)c3ccccc3C2=O)CCCC1
39	COc1ccccc1N1CCN(/N=C/C(Cl)=C/c2ccccc2)CC1
40	COc1ccccc1N1CCN(/N=C\c2ccccc2)CC1
41	COc1ccccc1N1CCN(/N=C\c2ccc(C)o2)CC1
42	CC(=O)N(C)C[C@@H]1Oc2cc(-c3cccnc3)ccc2S(=O)(=O)N([C@@H](C)CO)C[C@@H]1C

Screen / compound no. | 37 | 38 | 39 | 40 | 41 | 42
MITF TRPM1 HTS | . | 0 | . | . | 54 | .
Wnt act | . | -2 | 45* | 3 | 42* | .
PglD DTNB | 1 | 0 | -2 | 9 | -2 | -1
UUG fidelity | -14 | -19 | -12 | -12 | -9 | 3
esBAF inh | -2 | -7 | . | 36 | . | 1
miR122 inh | 24[16.7 µM] | 100* | -3 | -3 | -8 | 22[16.7 µM]

43	CCOc1ccc2nc(NC(=O)C34CC5CC(CC(NC(C)=O)(C5)C3)C4)sc2c1
44	COc1ccc2nc(NC(=O)C34CC5CC(CC(NC(C)=O)(C5)C3)C4)sc2c1
45	CCOc1ccc2nc(NC(=O)NC3CCCCC3)sc2c1
46	CC(C)NC(=O)N(C)C[C@H]1Oc2cc(-c3ccncc3)ccc2S(=O)(=O)N([C@@H](C)CO)C[C@H]1C
47	Cn1c(=Nc2ccccc2)sc2ccccc21
48	CN(C)c1ccc(N=c2sc3ccccc3n2C)cc1

Screen / compound no. | 43 | 44 | 45 | 46 | 47 | 48
MITF TRPM1 HTS | 66 | 20 | 74 | . | 36 | 51
Wnt act | 0 | 13 | 4 | . | 20 | 51*
PglD DTNB | -1 | 1 | 2 | 2 | -2 | 0
UUG fidelity | -5 | -5 | 1 | -10 | -19 | -11
esBAF inh | 58* | 27 | 34* | 1 | 39 | 82*
miR122 inh | . | -2 | . | -14[16.7 µM] | 1 | -3

Compound profiles (already shown). Order of screens: MITF TRPM1 HTS, Wnt act, PglD DTNB, UUG fidelity, esBAF inh, miR122 inh
Results for COc1ccc2nc(NC(=O)C34CC5CC(CC(NC(C)=O)(C5)C3)C4)sc2c1 = 20, 13, 1, -5, 27, -2
Results for CCOc1ccc2nc(NC(=O)C34CC5CC(CC(NC(C)=O)(C5)C3)C4)sc2c1 = 66, 0, -1, -5, 58*, .

New compounds follow
49	CN(C)c1ccc(C(=O)c2ccc(O)cc2O)cc1
50	Oc1ccc(Cl)cc1CNc1cnc2ccccc2c1
51	CSc1ccc(CNc2ccc(C)cc2)cc1
52	Oc1ccccc1CNc1cnc2ccccc2c1
53	COc1ccc(CNc2ccc(C)c(C)c2)cc1
54	Cc1ccc(NCc2ccccc2O)cc1C
55	CSc1ccc(CNc2ccc(C)c(C)c2)cc1
56	Cc1ccc(NCc2ccccc2)cc1

Screen / compound no. | 49 | 50 | 51 | 52 | 53 | 54 | 55 | 56
MITF TRPM1 HTS | 47 | . | 59 | 27 | 15 | 52 | 78 | 20
Wnt act | 14 | 2 | . | 21 | -2 | 11 | -1 | 9
PglD DTNB | -6 | 0 | 0 | 5 | . | -3 | -2 | .
UUG fidelity | -21 | -3 | -16 | -6 | . | -6 | -11 | .
esBAF inh | 55* | 0 | 55* | 54* | . | 68* | 59* | .
miR122 inh | 6 | 3 | -7 | . | . | 7 | . | .
